# Results published in article PMC3269786 (Neuron, 2012).
# Tested on: primary cultures of hypothalamic neurons
# Experiment: Fluo-4 Ca2+ mobilization in primary hypothalamic neurons
# Type: cell-based, mouse
structure (smiles),measurement,value
CCCN1CCC[C@@H]2Cc3n[nH]cc3C[C@H]21 [quinpirole],Ca2+ response in primary hypothalamic neurons,induces rapid Ca^2+ transients
